{
  "source": "patent US20080118529A1",
  "about": "(priority 2005, published 2008)",
  "test_system": "tPA",
  "format": "biochemical, human",
  "data": [
    {"substance": "native albumin: murine serum albumin, native", "values": [
      {"measurement": "tPA/plasminogen activating potential of protein/antigen preparation", "value": "not reflected by stimulation of tPA activation"}
    ]}
  ]
}
